1 compound from patent US9242960B2, “P38MAP kinase inhibitors” (Respivert Ltd., priority 2009, dated 2016) can be followed below.

SMILES strings stand for the structures. Where two headings read alike, the source gives them in different places.

For test [1], the system named is LPS-induced neutrophils accumulation. Kind of test: LPS-induced neutrophils accumulation in mice. In kind it is in vivo.
Test [2] deals with sputum macrophages. Kind of test: Sputum macrophage assay (LPS-induced IL-8 release). In kind it is cell-based. The note with it: Homo sapiens.
Test [3] has as its system bronchoconstrictor response to ovalbumin challenge (sGaw). Kind of test: Ovalbumin challenge/parainfluenza infection model. In kind it is in vivo. Conditions: nebulised 0.15 mg per day, days 10-15, PIV-3 infected sensitised guinea-pigs.
For test [4], the system named is neutrophil and macrophage accumulation into airways. Kind of test: Cigarette smoke model. In kind it is in vivo, A/J mice. The note with it: intra-nasally twice daily for 3 days. How it is done:
A/J mice (males, 5 weeks old) were exposed to cigarette smoke (4% cigarette smoke, diluted with compressed air) for 30 min/day for 11 days using a Tobacco Smoke Inhalation Experiment System for small animals (Model SIS-CS; Sibata Scientific Technology, Tokyo, Japan). Test substances were given intra-nasally (35 μl of solution in 50% DMSO/PBS) and therapeutically twice daily for 3 days after the final cigarette smoke exposure. Twelve hours after the last dosing, animals were anesthetized, the trachea cannulated and bronchoalveolar lavage fluid (BALF) was collected.

The subject of test [5] is Human rhinovirus RV16 (HRV). Kind of test: Rhinovirus-titre assay in MRC5 cells. In kind it is cell-based. The note with it: rhinovirus replication in MRC5 cells. As for the experimental part:
Human rhinovirus RV16 (HRV) was obtained form American Type Culture Collection (Manassas, Va.). Viral stocks were generated by infecting Hela cells with HRV until 80% of the cells were cytopathic.
MRC5 cells (human lung fibroblast, ATCC) were infected with 1 MOI (multiplicity of infection of 1.0) of HRV and incubated for 1 hr at 33° C. with gentle shaking for absorption. The cells were then washed with PBS, fresh media added and the cells were incubated for a further 96 hr. The supernatant was collected and 10-fold serial dilutions of virus containing supernatant were prepared. All titrations were performed by infecting confluent Hela cell monolayers with serially diluted supernantant (10^−1 to 10^−5) and assessing cytopathetic effect by MTT assay 4 days after infection. The amount of virus required to infect 50% of Hela cells was calculated in each treatment as TCID50 U/mL. Compounds were added 24 and 2 hr before HRV infection and 1 hr after infection when non-infected HRV was washed out.

For test [6], the system named is Allergen-induced eosinophil accumulation. The note with it: guinea pigs; for Inhibition of eosinophils in BALF following allergen challenge; Neutrophil numbers in BAL: aerosol, mean ± SEM.
Test [7] concerns differentiated U937 cells. Description: LPS-induced IL-8 release in differentiated U937 cells. In kind it is cell-based. The note with it: Homo sapiens, U-937. As for the experimental part:
U937 cells, human monocytic cell line, were differentiated to macrophage-type cells by incubation with phorbol myristate acetate (PMA; 100 ng/ml) for 48 to 72 hours. Cells were pre-incubated with final concentrations of compound for 2 hrs. […] Coli: O111:B4, Sigma) for 4 hrs, and the supernatant collected for determination of the IL-8 concentration by sandwich ELISA (Duo-set, R&D systems). The inhibition of IL-8 production was calculated at each concentration of test compound by comparison with vehicle control.

The subject of test [8] is differentiated U937 cells. Description: LPS-induced TNFα release in differentiated U937 cells. Conditions: Homo sapiens, U-937, read-out: IC50 Values LPS-induced TNFα release d-U937 cells. In kind it is cell-based. As for the experimental part:
U937 cells, human monocytic cell line, were differentiated to macrophage-type cells by incubation with phorbol myristate acetate (PMA; 100 ng/ml) for 48 to 72 hr. Where appropriate, cells were pre-incubated with final concentrations of compound for 2 hr. […] Coli: O111:B4, Sigma) for 4 hr, and the supernatant collected for determination of TNFα concentration by sandwich ELISA (Duo-set, R&D systems). […] THP-1, human monocytic cell line, was also used for this assay. […] Coli: O111:B4, Sigma) for 4 hr, and the supernatant collected for determination of TNFα concentration.

Test [9] relates to BEAS2B cells. Description: Rhinovirus-induced ICAM-1 expression in BEAS2B cells. In kind it is cell-based. The note with it: Homo sapiens, BEAS-2B.
Test [10] has as its system BEAS2B cells. Kind of test: Poly I:C-induced ICAM-1 induction in BEAS2B cells. Conditions: Homo sapiens, BEAS-2B; read-out: IC50 poly I:C induced ICAM1 expression in BEAS2B cells. In kind it is cell-based. How it is done: Poly I:C (1 ug/ml) (Invivogen Ltd., San Diego, Calif.) was transfected into BEAS2B cells (human bronchial epithelial cells, ATCC) with Oligofectamine (Invitrogen, Carlsbad, Calif.). Cells were pre-incubated with final concentrations of compound for 2 hrs. The level of ICAM1 expression on the cell surface was determined by cell-based ELISA. Briefly, at 18 hrs after poly I:C transfection, cells were fixed with 4% formaldehyde in PBS. After quenching endogenous peroxidase by adding 0.1% sodium azide and 1% hydrogen peroxide, cells were washed with wash-buffer (0.1% Tween in PBS: PBS-Tween). After blocking the wells with 5% milk in PBS-Tween for 1 hr, the cells were incubated with anti-human ICAM-1 antibody (Cell Signaling Technology, Danvers, Mass.) in 1% BSA PBS overnight at 4° C. Cells were washed with PBS-Tween and incubated with the secondary antibody (HRP-conjugated anti-rabbit IgG, Dako Ltd., Glostrup, Denmark). The ICAM-1 signal was detected by adding substrate and reading the absorbance at 450 nm with a reference wavelength of 655 nm using a spectrophotometer. […] The measured OD 450-655 readings were corrected for cell number by dividing with the OD595 reading in each well. The inhibition of ICAM-1 expression was calculated at each concentration of test compound by comparison with vehicle control.

The subject of test [11] is BEAS2B cells. Kind of test: Rhinovirus-induced IL-8 release in BEAS2B cells. In kind it is cell-based. Conditions: Homo sapiens, BEAS-2B.

With `COCC(=O)Nc1cc(Oc2ccc(NC(=O)Nc3cc(C(C)(C)C)nn3-c3ccc(C)cc3)c3ccccc23)ccn1` [Compound (1), N-(4-(4-(3-(3-tert-Butyl-1-p-tolyl-1H-pyrazol-5-yl)ureido)naphthalen-1-yloxy)pyridin-2-yl)-2-methoxyacetamide], the “Neutrophil numbers in BAL” value in test [1] (0.02 mg/ml intra tracheal, 2 hr pre-dose, 8 hr after LPS, mean ± SEM) is on record as 15.1 ± 2.1 ×10^5/mL; in [1] (0.02 mg/ml intra tracheal, 12 hr pre-dose, 8 hr after LPS, mean ± SEM), 20.1 ± 2.9 ×10^5/mL; in test [1] (0.1 mg/ml intra tracheal, 2 hr pre-dose, 8 hr after LPS, mean ± SEM), 10.4 ± 1.6 ×10^5/mL; in test [1] (0.1 mg/ml intra tracheal, 12 hr pre-dose, 8 hr after LPS, mean ± SEM), 16.7 ± 2.4 ×10^5/mL; in test [1] (0.2 mg/ml intra tracheal, 2 hr pre-dose, 8 hr after LPS, mean ± SEM) it was 4.6 ± 1.2 ×10^5/mL; in [1] (0.2 mg/ml intra tracheal, 8 hr pre-dose, mean ± SEM (vehicle 16.38 ± 2.53)) it was 9.65 ± 1.50 ×10^5/mL. In addition, the “Neutrophil numbers in BAL” value in test [1] (0.2 mg/ml intra tracheal, 12 hr pre-dose, 8 hr after LPS, mean ± SEM) is listed as 14.3 ± 2.0 ×10^5/mL. The “neutrophil accumulation into the BALF” value in test [1] (treated at 2, 8 or 12 hr before LPS challenge) is “inhibit neutrophil accumulation”. Besides, the IC50 in test [2] was 5 nM; in test [7], 7.9 nM; in [8] it was 2.1 nM; in [9] it was 0.37 nM; in [10] it was 1.7 nM; in test [11], 0.065 nM. In addition, in test [3], the “initial (1st hr) bronchoconstrictor response to ovalbumin challenge” value is listed as “no effect”. For the same compound, the “subsequent bronchoconstrictor response (2-12 hr post treatment)” value in test [3] is “markedly inhibited”. Besides, in [4], the “numbers of activated macrophages” value is recorded as “marked, dose-dependent reduction”. The numbers of neutrophils result in test [4] is listed as “marked, dose-dependent reduction”. Besides, the “concentration that decreased the viral titre by 1 log order” value in test [5] worked out at 5.2 nM. Further, the “Inhibition of eosinophils in BALF following allergen challenge; Neutrophil numbers in BAL” value was 12.4 ± 1.7 ×10^5/mL in [6] (column head 2 hr pre-dose (text: 8 hr post ovalbumin challenge)) and 21.6 ± 3.9 ×10^5/mL in test [6] (column head 12 hr pre-dose (text: 24 hr post ovalbumin challenge)). Besides, the “eosinophil accumulation into the BALF” value in test [6] (8 and 24 hr post ovalbumin challenge) is recorded as “inhibit eosinophil accumulation”.

The term IC50 denotes the concentration that gives 50% inhibition.
